Laboratory results reported in patent publication US8648068B2, “Heterocycloalkyl-containing thienopyrimidines for pharmaceutical compositions” (Boehringer Ingelheim International GmbH, priority 2010, dated 2014).

The chains behind the UniProt entries cited, without tags or fusion partners.
UniProt Q9HBH9, whole entry: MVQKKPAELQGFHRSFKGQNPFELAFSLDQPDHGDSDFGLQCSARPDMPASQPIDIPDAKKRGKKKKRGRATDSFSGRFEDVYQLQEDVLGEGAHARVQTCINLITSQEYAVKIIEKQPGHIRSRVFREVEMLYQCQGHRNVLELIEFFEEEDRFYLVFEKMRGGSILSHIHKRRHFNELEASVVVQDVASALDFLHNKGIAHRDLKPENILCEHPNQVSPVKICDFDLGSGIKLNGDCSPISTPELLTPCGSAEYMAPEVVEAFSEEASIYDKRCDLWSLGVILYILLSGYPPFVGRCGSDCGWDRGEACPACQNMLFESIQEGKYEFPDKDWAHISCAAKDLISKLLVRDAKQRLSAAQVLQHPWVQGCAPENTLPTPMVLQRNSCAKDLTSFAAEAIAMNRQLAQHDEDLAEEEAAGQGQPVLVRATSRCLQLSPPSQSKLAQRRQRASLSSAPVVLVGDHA

target: human Mnk2a (Homo sapiens, UniProt Q9HBH9); experiment: Mnk2a in vitro kinase assay (indirect fluorescence polarization); conditions: read-out: MNK2 IC50; GST-Mnk2a pre-activated with ERK2, 20 μM ATP, 30 μM substrate peptide
Method: Inhibitory potency of compounds against Mnk1, Mnk2a and other kinases was assessed with assays based on a format known to those skilled in the art as the indirect (competitive) fluorescence polarization. The assay detection system comprises a small fluorophore-labeled phospho-peptide (termed ligand) bound to a phospho-specific antibody. The product generated by the kinase reaction competes with the ligand for antibody binding. Based on the larger molecular volume of the bound ligand, which results in a lower rotation rate in solution, its emitted light has a higher degree of polarization than the one from the free ligand.
As a source of enzyme, human Mnk1 and human Mnk2a were expressed as GST fusion proteins in E. coli, purified to >80% homogeneity by glutathione affinity chromatography and activated in vitro with pre-activated ERK2. In brief, the open reading frames of human Mnk1 and Mnk2a were amplified from cDNA using the forward/reverse primer pairs
(utilized restriction sites underlined), respectively, and cloned into the BamHI and SalI sites of the vector pGEX-4T1 (Amersham, Sweden, cat. no. 27-4580-01). These constructs allow prokaryotic expression of Mnk1 or Mnk2a as fusion protein with a N-terminal glutathione S-transferase (GST) tag, referred to as GST-Mnk1 or GST-Mnk2a. The following expression and purification procedure was identical for GST-Mnk1 and GST-Mnk2a, referring in general to GST-Mnk, when not distinguishing between the two isoforms. Expression of GST-Mnk was in E. coli BL21 (Merck Biosciences, Germany, cat. no. 69449). Cells were grown in LB-Bouillon (Merck, Germany, cat. no. 1.10285) supplemented with 100 μg/ml ampicillin (Sigma, Germany, cat. no. A9518) at 37° C. When the culture had reached a density corresponding to an A600 of 0.8, an equal volume of ice cold LB/ampicillin was added, the culture transferred to 25° C. and induced for 4 h with 1 mM isopropyl thiogalactoside (IPTG, Roth, Germany, cat. no. 2316.4). Cells harvested by centrifugation were resuspended in 10 ml lysis buffer (50 mM tris(hydroxymethyl)aminomethane hydrochloride (Tris/HCl, Sigma, Germany, cat. no. T5941) pH 7.5, 300 mM sodium chloride (NaCl, Sigma, Germany, cat. no. S7653), 5% (w/v) glycerol (Sigma, Germany, cat. no. G5516), 3 mM DTT dithiotreitol (DTT, Sigma, Germany, cat. no. D9779)) per gram wet weight cell pellet. Lysates were prepared by disruption of cells with a sonifier and subsequent clearing by centrifugation at 38000 g for 45 min at 4° C.
The lysate was applied to a GSTPrep FF 16/10 column (Amersham, Sweden, cat. no. 17-5234-01) equilibrated with lysis buffer. Removal of unbound material was with 3 column volumes (CV) lysis buffer. Elution was with 2 CV of elution buffer (50 mM Tris/HCl pH 7.5, 300 mM NaCl, 5% (w/v) glycerol, 20 mM glutathione (Sigma, Germany, cat. no. G4251)). Peak fractions were pooled and the protein transferred into storage buffer (50 mM Tris/HCl pH 7.5, 200 mM NaCl, 0.1 mM ethylene glycol-bis(2-aminoethylether)-N,N,N′,N′-tetraacetic acid (EGTA, Aldrich, Germany, cat. no. 23, 453-2), 1 mM DTT, 10% (w/v) glycerol, 0.5 M sucrose (Sigma, Germany, cat. no. SO389) by gel filtration on a PD10 desalting column (Amersham, Sweden, cat. no. 17-0851-01). Aliquots were shock frozen in liquid nitrogen and stored at −80° C.
Activation of Mnk1 and Mnk2a was at a concentration of 2.5 μM of either purified GST-Mnk1 or GST-Mnk2a by incubation with 150 nM pre-activated NHis-ERK2 (see ERK2 assay for preparation) and 50 μM adenosine triphosphate (ATP, Sigma, cat. no. A2699) in a buffer comprising 20 mM N-(2-hydroxyethyl)piperazine-N′-(2-ethanesulfonic acid) (HEPES, Fluka, Germany, cat. no 54459)/potassium hydroxide (KOH, Roth, Germany, cat. no 6751.1) pH 7.4, 10 mM magnesium chloride (MgCl2, Sigma, Germany, cat. no. M2670), 0.25 mM DTT, 0.05% (w/v) polyoxyethylene 20 stearylether (Brij 78, Sigma, Germany, cat. no. P4019) (HMDB buffer) for 45 min at 30° C. […]

IC50 [nM] | Compound
53 | Cc1c(C(=O)NCC2COCCN2)sc2ncnc(Nc3ccc(F)cc3OC3CCOCC3)c12 (stereo not drawn)
35 | Cc1c(C(=O)NCCC2CCCN2)sc2ncnc(Nc3ccc(F)cc3OC3CCOCC3)c12 (stereo not drawn)
42 | Cc1c(C(=O)NCC2CNC2)sc2ncnc(Nc3ccc(F)cc3OC3CCOCC3)c12
53 | Cc1c(C(=O)NC2CCN(C)CC2)sc2ncnc(Nc3ccc(F)cc3O[C@@H]3CCOC3)c12
38 | Cc1c(C(=O)NC2CCCN(C(=O)OC(C)(C)C)CC2)sc2ncnc(Nc3ccc(F)cc3O[C@@H]3CCOC3)c12 (stereo partly drawn)
76 | Cc1c(C(=O)NCc2ccccc2)sc2ncnc(Nc3ccc(F)cc3OC3CCCNC3)c12 (stereo not drawn) [Example 27]
70 | Cc1c(C(=O)NC2CCNC2)sc2ncnc(Nc3ccc(F)cc3OC3CCOCC3)c12 (stereo not drawn)
84 | Cc1c(C(=O)NC2CNC2)sc2ncnc(Nc3ccc(F)cc3OC3CCOCC3)c12
12 | Cc1c(C(=O)NC2CCCNC2)sc2ncnc(Nc3ccc(F)cc3OC3CCOCC3)c12 (stereo not drawn)
